Values quoted from earlier work, collected in patent publication US6663886B2, “Inhibition of cell-cell binding by lipid assemblies” (Regents of the University of California, priority 1997, dated 2003).

Legend:
P-selectin = biological target: T1, P-selectin (Homo sapiens, UniProt P16109); conditions: literature (Nelson et al. 1993; Moore et al. 1991)
T1 sequence (P16109 42-830): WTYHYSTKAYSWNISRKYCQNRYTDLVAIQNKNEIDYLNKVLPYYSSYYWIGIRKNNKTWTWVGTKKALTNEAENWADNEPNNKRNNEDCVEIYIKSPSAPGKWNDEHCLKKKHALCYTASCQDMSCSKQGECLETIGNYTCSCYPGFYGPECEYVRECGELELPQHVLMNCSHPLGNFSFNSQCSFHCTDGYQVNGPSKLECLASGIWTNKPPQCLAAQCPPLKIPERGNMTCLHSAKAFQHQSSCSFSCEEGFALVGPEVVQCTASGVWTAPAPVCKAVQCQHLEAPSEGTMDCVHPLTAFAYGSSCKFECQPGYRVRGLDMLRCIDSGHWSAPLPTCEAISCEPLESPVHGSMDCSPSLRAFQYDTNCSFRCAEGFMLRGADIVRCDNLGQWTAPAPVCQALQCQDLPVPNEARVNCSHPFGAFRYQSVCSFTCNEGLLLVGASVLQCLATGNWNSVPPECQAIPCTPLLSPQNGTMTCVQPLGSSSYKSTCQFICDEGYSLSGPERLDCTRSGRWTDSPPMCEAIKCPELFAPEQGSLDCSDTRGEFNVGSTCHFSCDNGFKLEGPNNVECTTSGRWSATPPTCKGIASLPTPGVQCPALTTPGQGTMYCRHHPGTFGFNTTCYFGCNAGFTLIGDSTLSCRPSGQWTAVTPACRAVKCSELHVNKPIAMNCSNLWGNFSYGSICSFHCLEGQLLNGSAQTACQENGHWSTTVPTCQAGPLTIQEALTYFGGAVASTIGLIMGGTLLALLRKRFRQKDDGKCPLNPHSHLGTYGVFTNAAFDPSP

L-selectin = biological target: T2, L-selectin (Homo sapiens, UniProt P14151); conditions: literature (Nelson et al. 1993)
T2 sequence (P14151 39-372): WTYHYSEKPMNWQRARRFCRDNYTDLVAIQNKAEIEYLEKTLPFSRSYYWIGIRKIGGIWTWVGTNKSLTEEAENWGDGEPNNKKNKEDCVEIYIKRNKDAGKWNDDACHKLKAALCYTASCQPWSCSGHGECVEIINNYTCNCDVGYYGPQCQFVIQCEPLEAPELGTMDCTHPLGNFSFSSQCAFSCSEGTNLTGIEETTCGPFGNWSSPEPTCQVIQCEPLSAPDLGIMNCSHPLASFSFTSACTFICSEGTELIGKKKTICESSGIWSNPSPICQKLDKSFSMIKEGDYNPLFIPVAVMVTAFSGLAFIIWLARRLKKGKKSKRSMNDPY

binding affinity of P-selectin (P-selectin): in the mM range
binding affinity of L-selectin (L-selectin): in the mM range
Substance: NeuAcα2,3Galβ1,4(fucα1,3)GlcNac- [sLe^x]
